The values that follow are results of earlier work, collected in US20220089765A1, “CD31 COMPETITORS AND USES THEREOF” (ENCEFA, priority 2019, published 2022).

For the data set the following is noted: in humans; cited from earlier work.

As for “Aducanumab: monoclonal antibody whose brain/plasma ratio in humans is cited [reference compound]”, the Brain/plasma ratio is reported as 1.3%.
